Blank lines part the entries; values can stand above or below the compound they belong to.
Columns and labels:
[1] = biological target: DNA repair protein RAD51 homolog 1 (Homo sapiens) (UniProt Q06609); assay: Inhibition of RAD51 (unknown origin) binding to ssDNA
[2] = biological target: DNA repair protein RAD51 homolog 1 (Homo sapiens) (UniProt Q06609); assay: Binding affinity to RAD51 (unknown origin) by surface plasmon resonance method
[3] = biological target: T1, RecQ-like DNA helicase BLM (Homo sapiens, UniProt P54132); assay: Inhibition of BLM helicase (unknown origin) assessed as branch migration activity
[4] = biological target: T1, RecQ-like DNA helicase BLM; assay: Inhibition of BLM helicase (unknown origin) binding to DNA
[5] = biological target: T2, Double-strand break repair protein MRE11 (Homo sapiens) (UniProt P49959); settings: HEK293, 25 uM
T2 sequence (whole entry): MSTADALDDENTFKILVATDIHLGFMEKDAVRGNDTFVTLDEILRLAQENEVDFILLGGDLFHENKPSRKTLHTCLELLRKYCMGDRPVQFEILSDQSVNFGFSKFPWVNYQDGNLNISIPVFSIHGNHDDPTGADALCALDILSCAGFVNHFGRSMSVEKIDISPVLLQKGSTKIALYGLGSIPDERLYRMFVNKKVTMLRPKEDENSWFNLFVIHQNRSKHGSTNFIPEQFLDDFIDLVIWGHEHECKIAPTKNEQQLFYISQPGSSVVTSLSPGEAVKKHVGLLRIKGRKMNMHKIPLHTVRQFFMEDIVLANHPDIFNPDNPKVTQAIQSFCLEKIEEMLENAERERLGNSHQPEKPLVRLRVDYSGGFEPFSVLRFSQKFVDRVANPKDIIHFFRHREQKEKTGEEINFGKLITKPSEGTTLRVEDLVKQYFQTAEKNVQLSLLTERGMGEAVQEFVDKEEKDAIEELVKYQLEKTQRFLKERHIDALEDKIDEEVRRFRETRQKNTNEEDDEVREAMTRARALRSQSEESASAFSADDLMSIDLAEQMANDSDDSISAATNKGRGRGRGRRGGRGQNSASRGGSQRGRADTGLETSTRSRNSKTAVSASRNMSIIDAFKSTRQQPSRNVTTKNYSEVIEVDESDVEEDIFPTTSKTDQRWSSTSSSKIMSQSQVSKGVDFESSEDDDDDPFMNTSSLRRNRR

Chains of the proteins cited; added tags and fusions are not shown. Lines headed by an entry give the natural chain unless they say otherwise; changes in a name come on top.
UniProt P54132: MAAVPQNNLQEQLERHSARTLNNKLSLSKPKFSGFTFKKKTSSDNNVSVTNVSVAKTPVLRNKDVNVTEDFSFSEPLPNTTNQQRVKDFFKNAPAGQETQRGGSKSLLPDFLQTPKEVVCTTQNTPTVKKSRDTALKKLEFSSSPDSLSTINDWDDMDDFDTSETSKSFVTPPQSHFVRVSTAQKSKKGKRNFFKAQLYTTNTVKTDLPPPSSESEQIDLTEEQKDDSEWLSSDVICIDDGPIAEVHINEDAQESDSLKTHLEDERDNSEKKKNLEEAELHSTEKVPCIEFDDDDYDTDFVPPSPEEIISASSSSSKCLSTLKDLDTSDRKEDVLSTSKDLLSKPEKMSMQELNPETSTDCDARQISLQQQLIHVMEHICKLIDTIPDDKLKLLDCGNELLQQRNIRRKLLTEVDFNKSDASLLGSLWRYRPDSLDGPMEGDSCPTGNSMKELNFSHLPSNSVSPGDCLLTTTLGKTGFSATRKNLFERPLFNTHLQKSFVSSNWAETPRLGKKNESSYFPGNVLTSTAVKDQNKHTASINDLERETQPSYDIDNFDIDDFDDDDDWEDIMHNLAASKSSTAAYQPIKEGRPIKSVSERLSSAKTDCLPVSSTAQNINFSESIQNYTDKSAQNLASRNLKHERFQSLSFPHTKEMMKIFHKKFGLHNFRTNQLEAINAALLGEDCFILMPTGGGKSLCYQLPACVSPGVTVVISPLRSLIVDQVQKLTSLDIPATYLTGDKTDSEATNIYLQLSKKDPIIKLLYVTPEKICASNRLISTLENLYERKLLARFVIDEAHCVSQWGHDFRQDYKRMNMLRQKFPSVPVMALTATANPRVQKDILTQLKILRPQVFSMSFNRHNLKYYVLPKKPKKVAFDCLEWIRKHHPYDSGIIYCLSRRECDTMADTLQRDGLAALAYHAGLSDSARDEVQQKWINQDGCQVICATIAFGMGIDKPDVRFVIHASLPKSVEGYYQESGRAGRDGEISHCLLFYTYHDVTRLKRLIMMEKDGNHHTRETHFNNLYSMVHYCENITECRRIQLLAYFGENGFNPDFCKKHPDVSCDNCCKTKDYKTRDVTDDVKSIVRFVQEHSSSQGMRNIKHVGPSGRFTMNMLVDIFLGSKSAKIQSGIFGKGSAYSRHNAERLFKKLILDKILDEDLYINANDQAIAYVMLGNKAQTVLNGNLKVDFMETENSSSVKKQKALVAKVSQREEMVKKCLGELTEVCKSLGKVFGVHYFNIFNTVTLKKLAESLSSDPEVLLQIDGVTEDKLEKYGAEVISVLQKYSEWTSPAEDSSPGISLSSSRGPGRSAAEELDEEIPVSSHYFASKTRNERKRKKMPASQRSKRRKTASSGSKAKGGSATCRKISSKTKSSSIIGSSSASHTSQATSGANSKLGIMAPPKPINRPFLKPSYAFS

EC50 [1]: 5 µM
SMILES: O=C1C(Cl)=C(N2CCOCC2)C(=O)N1c1ccc(Cl)c(Cl)c1

SMILES: O=S(=O)(O)c1cc(N=C=S)ccc1/C=C/c1ccc(N=C=S)cc1S(=O)(=O)O
EC50 [1]: 1 µM | Kd [2]: 2 µM

IC50 [3]: 50 µM | IC50 [4]: 3 µM
SMILES: O=C(Nc1ccc(F)c(C(F)(F)F)c1)Nc1nnc(-c2ccncc2)s1

inhibition [5]: 70%
SMILES: N=C1NC(=O)/C(=C/c2ccc(O)cc2)S1

Source: ChEMBL document CHEMBL3352588, “Targeting the homologous recombination pathway by small molecule modulators” (Bioorg Med Chem Lett, 2014)
